From US6617438B1, “Oligoribonucleotides with enzymatic activity” (Sirna Therapeutics, Inc., priority 1997, dated 2003)

System: SKBR-3
Format: cell-based
Conditions: 0.5 nM in medium containing 0.1% or no FBS

Herceptin®: anti-HER2 humanized monoclonal antibody (Genentech)
Maximal inhibition of proliferation: ~50%
